# Measurements from patent US20060115816A1, “Splice variant cannabinoid receptor (cb1b)” (priority 2002, published 2006).
# The chains behind the UniProt entries cited, without tags or fusion partners.
# UniProt P34972, whole entry: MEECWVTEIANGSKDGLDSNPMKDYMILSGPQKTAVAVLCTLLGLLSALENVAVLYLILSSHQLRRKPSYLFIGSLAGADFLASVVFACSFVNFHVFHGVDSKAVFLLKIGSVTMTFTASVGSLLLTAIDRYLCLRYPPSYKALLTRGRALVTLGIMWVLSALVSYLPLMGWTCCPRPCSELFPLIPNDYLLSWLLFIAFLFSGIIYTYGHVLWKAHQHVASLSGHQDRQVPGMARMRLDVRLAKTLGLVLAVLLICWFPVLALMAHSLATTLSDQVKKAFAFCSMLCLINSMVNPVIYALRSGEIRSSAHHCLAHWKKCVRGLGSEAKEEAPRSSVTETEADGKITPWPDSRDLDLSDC
# Biological target: T1, hCB2 (Homo sapiens, UniProt P34972)
# T1 construct: expressed in transfected cells
# Test: GTPγ[35S] binding assay, agonist properties on hCB2
# Type: biochemical
smiles,measurement,value
CCCCC/C=C\C/C=C\C/C=C\C/C=C\CCCC(=O)NCCO [Anandamide],EC50,99 nM
